What was measured:
LA25 cells = assay: Growth of LA25 cells (temperature-sensitive pp60^v-src transformant of NRK); details: 25 μM; relative to LA25 growth at non-permissive 40° C.
NRK cells = assay: Growth of non-transformed normal rat kidney (NRK) cells; details: concentration increased up to 400 μM, LA25 at 40° C. and at 33° C.

`O=C(Nc1cccc(O)c1)c1cc2ccc(O)cc2cc1O` was tested, and the “inhibition of LA25 cell growth at permissive 33° C.” value (LA25 cells) was “approximately 50%” and the “basal cell growth (cell toxicity)” value (NRK cells) was “not only does not decrease but actually increases somewhat”.

From US7901894B2, “Kinase inhibitors” (The Research Foundation of State University of New York, priority 1999, dated 2011)
